In this experiment the target is T1, Androgen receptor (Rattus norvegicus, UniProt P15207).
T1 sequence (P15207 whole entry): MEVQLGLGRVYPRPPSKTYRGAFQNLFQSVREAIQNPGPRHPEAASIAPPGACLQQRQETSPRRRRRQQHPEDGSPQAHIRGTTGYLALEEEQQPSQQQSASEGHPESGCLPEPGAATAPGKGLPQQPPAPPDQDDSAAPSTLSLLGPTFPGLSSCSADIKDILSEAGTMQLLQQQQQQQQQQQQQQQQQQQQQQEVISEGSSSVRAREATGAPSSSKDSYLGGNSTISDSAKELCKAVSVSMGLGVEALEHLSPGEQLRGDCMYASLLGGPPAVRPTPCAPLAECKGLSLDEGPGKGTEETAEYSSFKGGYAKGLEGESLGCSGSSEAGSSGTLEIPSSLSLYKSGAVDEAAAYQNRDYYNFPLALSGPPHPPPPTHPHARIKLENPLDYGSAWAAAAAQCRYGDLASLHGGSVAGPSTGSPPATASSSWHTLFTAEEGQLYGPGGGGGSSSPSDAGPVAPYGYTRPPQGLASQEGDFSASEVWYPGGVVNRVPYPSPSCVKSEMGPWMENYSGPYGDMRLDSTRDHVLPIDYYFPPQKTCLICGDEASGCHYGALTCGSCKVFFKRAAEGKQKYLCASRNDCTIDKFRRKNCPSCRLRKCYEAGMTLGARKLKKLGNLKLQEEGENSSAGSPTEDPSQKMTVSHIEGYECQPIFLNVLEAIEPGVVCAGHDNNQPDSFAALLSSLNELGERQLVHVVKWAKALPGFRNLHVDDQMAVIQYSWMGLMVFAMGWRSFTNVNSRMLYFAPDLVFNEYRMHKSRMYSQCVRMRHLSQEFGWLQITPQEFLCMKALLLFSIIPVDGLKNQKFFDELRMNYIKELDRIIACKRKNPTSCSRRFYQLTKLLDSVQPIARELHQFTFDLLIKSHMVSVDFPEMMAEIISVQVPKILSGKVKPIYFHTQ

As for `O=C1C2(Cl)C3(Cl)C4(Cl)C(Cl)(Cl)C5(Cl)C3(Cl)C1(Cl)C5(Cl)C24Cl` (configuration not stated) [KEPONE], the midpoint of inhibition, the IC50, lay at 12 µM.

Regarding `CCC(=O)O[C@H]1CC[C@H]2[C@@H]3CCC4=CC(=O)CC[C@]4(C)[C@H]3CC[C@]12C` [TESTOSTERONE PROPIONATE], the IC50 (in general, the concentration at which inhibition is half-maximal) is 1.91 µM.
